Measurements taken from ChEMBL document CHEMBL4422672 (J Med Chem, 2019).

How the values were obtained:
[1] = species: Homo sapiens; assay: Selectivity index, ratio of IC50 for displacement of [3H]CP55,940 to human CB2 receptor expressed in cell membranes after 90 mins by liquid scintillation counting to IC50 for inhibition of human recombinant MAGL using 4-NPA as substrate after 30 mins; format: cell-based
[2] = species: Homo sapiens; assay: Selectivity index, ratio of IC50 for inhibition of human ABHD6 expressed in HEK293 cell homogenates pre-incubated for 30 mins in presence of [1,2,3-3H]2-OG by liquid scintillation spectroscopy to IC50 for inhibition of human recombinant MAGL using 4-NPA as substrate after 30 mins; format: tissue-based
[3] = species: Homo sapiens; assay: Selectivity index, ratio of IC50 for inhibition of FAAH in human U937 cell homogenates using [ethanolamine-1-3H]AEA as substrate after 15 mins by liquid scintillation spectroscopy to IC50 for inhibition of human recombinant MAGL using 4-NPA as substrate after 30 mins; format: tissue-based
[4] = species: Homo sapiens; assay: Selectivity index, ratio of IC50 for displacement of [3H]CP55,940 to human CB1 receptor expressed in cell membranes after 90 mins by liquid scintillation counting to IC50 for inhibition of human recombinant MAGL using 4-NPA as substrate after 30 mins; format: cell-based
[5] = species: Homo sapiens; assay: Selectivity index, ratio of IC50 for inhibition of human ABHD12 expressed in HEK293 cell homogenates pre-incubated for 30 mins in presence of [1,2,3-3H]2-OG by liquid scintillation spectroscopy to IC50 for inhibition of human recombinant MAGL using 4-NPA as substrate after 30 mins; format: tissue-based

Measured: Ratio IC50

CC(C)c1ccc(C(=O)C2CCN(C(=O)c3cc(O)ccc3F)CC2)cc1
> 100: all assays above
